Broadly, the pIC50 is the negative decadic logarithm of the IC50, by convention in mol/L.

Amino acid sequences for entries named in this document (tags omitted). A change or cut given only in a name is not applied to a line headed by its entry.
UniProt P53779: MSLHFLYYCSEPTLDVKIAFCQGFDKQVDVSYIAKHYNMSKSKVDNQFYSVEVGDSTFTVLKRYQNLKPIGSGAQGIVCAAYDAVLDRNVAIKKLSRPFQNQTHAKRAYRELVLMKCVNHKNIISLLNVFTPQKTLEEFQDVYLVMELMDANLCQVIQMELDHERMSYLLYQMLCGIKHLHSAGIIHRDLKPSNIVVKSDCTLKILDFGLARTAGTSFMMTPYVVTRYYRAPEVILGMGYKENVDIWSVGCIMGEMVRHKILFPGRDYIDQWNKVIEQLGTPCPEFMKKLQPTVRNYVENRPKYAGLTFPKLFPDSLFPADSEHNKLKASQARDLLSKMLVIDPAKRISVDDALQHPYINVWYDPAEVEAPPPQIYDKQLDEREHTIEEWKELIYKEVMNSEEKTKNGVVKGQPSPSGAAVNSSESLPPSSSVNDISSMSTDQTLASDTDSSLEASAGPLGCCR

Assay [1] addresses T1, Mitogen-activated protein kinase 10 (Homo sapiens, UniProt P53779). As to the kind of experiment: Inhibition of JNK3-mediated c-jun phosphorylation in human HeLa cells after 1 hr incubation. The class given is cell-based.
Assay [2] addresses T1, Mitogen-activated protein kinase 10. As to the kind of experiment: Inhibition of JNK3 (unknown origin) after 1 hr incubation.

pIC50: −log10 of the molar value.

On to `CN(C)C/C=C/C(=O)Nc1cccc(C(=O)Nc2ccc(Nc3nccc(-c4cccnc4)n3)cc2)c1`, for which the pIC50 in assay [1] was 6.89; in assay [2], 9.15.
